A short description of data set [1]: […]-water partition coefficient, logP of compound by shake flask method based 31P-NMR analysis. The settings on record: octanol/water.
Data set [2] is described as follows: Basicity of hydrogen bond, pKHB of compound by IR spectroscopy. Type of data set: physicochemical.
Data set [3] in a line: Octanol-water partition coefficient, logP of compound by shake flask method based 31P-NMR analysis.

Take `CCOP(=S)(OCC)OCC`: the logP in data set [1] was determined as 2.71. In data set [2], this molecule gave a pKHB of 0.715.
Consider `CCOP(=O)(OCC)C(F)(F)Br`, for which the lipophilicity (logP) in data set [3] was 1.1. In addition, the pKHB in data set [2] was 1.64.
Take `CCOP(=O)(OCC)C(F)F`: the logP in data set [3] is 0.78.

The term logP denotes a log measure of how a compound divides between an organic and an aqueous phase. High values mean higher lipophilicity, low ones lower lipophilicity.

The values above are taken from ChEMBL document CHEMBL5131543, “Studying Lipophilicity Trends of Phosphorus Compounds by 31P-NMR Spectroscopy: A Powerful Tool for the Design of P-Containing Drugs” (J Med Chem, 2022).
